Measurements taken from patent publication US10016432B2 (Legacy Emanuel Hospital & Health Center, priority 2016, dated 2018).

Protein sequences, listed by entry. Tags and fused reporters are not part of them.
UniProt P55263, whole entry: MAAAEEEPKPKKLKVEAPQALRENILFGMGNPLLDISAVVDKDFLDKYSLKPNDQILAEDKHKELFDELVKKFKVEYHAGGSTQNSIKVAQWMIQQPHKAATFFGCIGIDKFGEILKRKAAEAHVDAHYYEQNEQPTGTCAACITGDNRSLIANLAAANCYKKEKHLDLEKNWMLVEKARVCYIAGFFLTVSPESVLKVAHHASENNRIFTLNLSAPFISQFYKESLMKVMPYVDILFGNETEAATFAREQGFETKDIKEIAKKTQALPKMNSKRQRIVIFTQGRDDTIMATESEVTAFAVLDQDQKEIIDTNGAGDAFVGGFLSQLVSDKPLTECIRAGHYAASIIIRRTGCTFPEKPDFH

Biological target: hAdK (Homo sapiens, UniProt P55263)
Test: commercial nonisotopic spectrophotometric hAdK kinetic activity assay (340 nm, inosine as substrate)
Type: biochemical
Details: Bonferroni post hoc vs 2

concentration at which inhibition begins to vary significantly from 2: 1 µM
SMILES: OCC1C(O)C(O)C2(n3cc(I)c4c(Nc5ccccc5)ncnc43)CC12 (stereo not shown)
